Experimental data published in patent publication US8563553B2, “Compounds and compositions as protein kinase inhibitors” (Novartis AG, priority 2009, dated 2013).

Chains of the proteins cited; added tags and fusions are not shown.
UniProt P15056, whole entry V600E: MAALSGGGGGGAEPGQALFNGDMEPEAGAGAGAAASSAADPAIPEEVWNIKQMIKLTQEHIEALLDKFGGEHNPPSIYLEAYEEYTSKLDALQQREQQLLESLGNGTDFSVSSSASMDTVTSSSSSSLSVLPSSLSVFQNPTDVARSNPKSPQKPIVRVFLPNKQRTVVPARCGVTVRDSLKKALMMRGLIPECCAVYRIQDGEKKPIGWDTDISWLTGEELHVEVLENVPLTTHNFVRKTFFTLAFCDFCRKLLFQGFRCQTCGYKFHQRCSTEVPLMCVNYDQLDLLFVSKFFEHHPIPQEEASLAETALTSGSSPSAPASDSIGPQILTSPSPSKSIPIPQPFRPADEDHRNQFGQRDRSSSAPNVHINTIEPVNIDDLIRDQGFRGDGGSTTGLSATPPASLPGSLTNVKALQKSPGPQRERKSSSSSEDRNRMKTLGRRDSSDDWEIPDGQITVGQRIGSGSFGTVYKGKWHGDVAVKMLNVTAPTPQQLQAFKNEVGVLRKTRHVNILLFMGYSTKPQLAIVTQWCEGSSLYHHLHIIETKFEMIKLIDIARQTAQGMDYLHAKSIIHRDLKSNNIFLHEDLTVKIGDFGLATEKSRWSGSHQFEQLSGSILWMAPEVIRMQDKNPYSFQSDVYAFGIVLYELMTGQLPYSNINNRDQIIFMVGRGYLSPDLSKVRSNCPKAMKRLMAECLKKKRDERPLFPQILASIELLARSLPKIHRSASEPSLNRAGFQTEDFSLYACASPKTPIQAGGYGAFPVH

Target: b-Raf(V600E) (Homo sapiens (Human), UniProt P15056, V600E)
Experiment: Raf/Mek Amplified Luminescence Proximity Homogeneous Assay (Alpha Screen)
Format: biochemical
Details: b-Raf(V600E) approximately 4 pM; biotinylated Mek, kinase dead approximately 10 nM; ATP 10 μM; pre-incubation 60 minutes; reaction 3 hours at room temperature; read-out: mut-B-RAF IC50
Description: Raf/Mek Amplified Luminescence Proximity Homogeneous Assay
Assay buffer: 50 mM Tris, pH 7.5, 15 mM MgCl2, 0.01% Bovine Serum Albumin (BSA), 1 mM dithiothreitol (DTT) Stop buffer: 60 mM ethylenediaminetetraacetic acid (EDTA), 0.01% Tween® 20 Bead buffer: 50 mM Tris, pH 7.5, 0.01% Tween® 20 […]
biotinylated Mek, kinase dead
Alpha Screen detection kit (available from PerkinElmer™, #6760617R)
Anti phospho-MEK1/2 (available from Cell Signaling Technology, Inc. #9121) 384 well assay plates (White Greiner® plates, #781207) […]
b-Raf(V600E) approximately 4 pM […]
biotinylated Mek, Kinase dead approximately 10 nM
Pre-incubation time with compounds 60 minutes at room temperature
Reaction time 1 or 3 hours at room temperature […]
The Raf kinase activity reaction was started by the addition of 10 μL per well of 2×ATP diluted in assay buffer. […] Phosphorylated product was measured using a rabbit anti-p-MEK (Cell Signaling, #9121) antibody and the Alpha Screen IgG (ProteinA) detection Kit (PerkinElmer #6760617R), by the addition of 30 μL to the well of a mixture of the antibody (1:2000 dilution) and detection beads (1:2000 dilution of both beads) in bead buffer (50 mM Tris, pH 7.5, 0.01% Tween20). […] A lid was placed on top of the plate and incubated for 1 hour at room temperature, then the luminescence was read on a PerkinElmer Envision instrument. […]

IC50 [nM]	SMILES
0.18	COC(=O)N[C@@H](C)CNc1nccc(-c2nc(C3CC3)[nH]c2-c2cc(Cl)cc(NS(=O)(=O)C3CC3)c2F)n1 [Example 1Y, (S)-Methyl 1-(4-(5-(5-chloro-3-(cyclopropanesulfonamido)-2-fluorophenyl)-2-cyclopropyl-1H-imidazol-4-yl)pyrimidin-2-ylamino)propan-2-ylcarbamate]
0.12	CCCS(=O)(=O)Nc1c(F)ccc(-c2nc(C(C)(C)C)[nH]c2-c2ccnc(NC[C@H](C)NC(=O)OC)n2)c1F [Example 4I, (S)-Methyl 1-(4-(2-tert-butyl-4-(2,4-difluoro-3-(propylsulfonamido)phenyl)-1H-imidazol-5-yl)pyrimidin-2-ylamino)propan-2-ylcarbamate]
